Assay results from patent publication US20250049819A1, “METHODS FOR TREATING AND PREVENTING C. DIFFICILE INFECTION” (Paratek Pharmaceuticals, Inc., priority 2016, published 2025).
Where two headings read alike, the source gives them in different places.

Legend:
[1] = system: C. difficile strain ATCC 43596; assay: Hamster model of C. difficile-associated diarrhea, survival; settings: in vivo
[2] = system: C. difficile and gut microbiota; settings: published gut model studies, cited from earlier work

Which “Median Survival” value [1] does the source give for `CCC[C@@H]1C[C@@H](C(=O)N[C@@H]([C@H]2O[C@H](SC)[C@H](O)[C@@H](O)[C@H]2O)[C@H](C)Cl)N(C)C1` [Clindamycin] here?
Its value is 4 days.

And the “percent survival at day 2 post infection” value [1]?
Its value is 10%.

What about the “induction of simulated CDI (C. difficile germination and toxin production) in the gut model” value [2] of the same molecule?
The value was “causes marked toxin production”.

What about the “induction of simulated CDI (C. difficile germination and toxin production) in the gut model” value ([2]; listed as clindamycin) of the same molecule?
The value was “have induced CDI in this model”.
